Test results from patent US20220380338A1, “CYCLOALKYL 3-OXOPIPERAZINE CARBOXAMIDES AND CYCLOHETEROALKYL 3-OXOPIPERAZINE CARBOXAMIDES AS NAV1.8 INHIBITORS” (Merck Sharp & Dohme LLC, priority 2021, published 2022).

Protein sequences, listed by entry. Tags and fused reporters are not part of them.
UniProt Q9Y5Y9, whole entry: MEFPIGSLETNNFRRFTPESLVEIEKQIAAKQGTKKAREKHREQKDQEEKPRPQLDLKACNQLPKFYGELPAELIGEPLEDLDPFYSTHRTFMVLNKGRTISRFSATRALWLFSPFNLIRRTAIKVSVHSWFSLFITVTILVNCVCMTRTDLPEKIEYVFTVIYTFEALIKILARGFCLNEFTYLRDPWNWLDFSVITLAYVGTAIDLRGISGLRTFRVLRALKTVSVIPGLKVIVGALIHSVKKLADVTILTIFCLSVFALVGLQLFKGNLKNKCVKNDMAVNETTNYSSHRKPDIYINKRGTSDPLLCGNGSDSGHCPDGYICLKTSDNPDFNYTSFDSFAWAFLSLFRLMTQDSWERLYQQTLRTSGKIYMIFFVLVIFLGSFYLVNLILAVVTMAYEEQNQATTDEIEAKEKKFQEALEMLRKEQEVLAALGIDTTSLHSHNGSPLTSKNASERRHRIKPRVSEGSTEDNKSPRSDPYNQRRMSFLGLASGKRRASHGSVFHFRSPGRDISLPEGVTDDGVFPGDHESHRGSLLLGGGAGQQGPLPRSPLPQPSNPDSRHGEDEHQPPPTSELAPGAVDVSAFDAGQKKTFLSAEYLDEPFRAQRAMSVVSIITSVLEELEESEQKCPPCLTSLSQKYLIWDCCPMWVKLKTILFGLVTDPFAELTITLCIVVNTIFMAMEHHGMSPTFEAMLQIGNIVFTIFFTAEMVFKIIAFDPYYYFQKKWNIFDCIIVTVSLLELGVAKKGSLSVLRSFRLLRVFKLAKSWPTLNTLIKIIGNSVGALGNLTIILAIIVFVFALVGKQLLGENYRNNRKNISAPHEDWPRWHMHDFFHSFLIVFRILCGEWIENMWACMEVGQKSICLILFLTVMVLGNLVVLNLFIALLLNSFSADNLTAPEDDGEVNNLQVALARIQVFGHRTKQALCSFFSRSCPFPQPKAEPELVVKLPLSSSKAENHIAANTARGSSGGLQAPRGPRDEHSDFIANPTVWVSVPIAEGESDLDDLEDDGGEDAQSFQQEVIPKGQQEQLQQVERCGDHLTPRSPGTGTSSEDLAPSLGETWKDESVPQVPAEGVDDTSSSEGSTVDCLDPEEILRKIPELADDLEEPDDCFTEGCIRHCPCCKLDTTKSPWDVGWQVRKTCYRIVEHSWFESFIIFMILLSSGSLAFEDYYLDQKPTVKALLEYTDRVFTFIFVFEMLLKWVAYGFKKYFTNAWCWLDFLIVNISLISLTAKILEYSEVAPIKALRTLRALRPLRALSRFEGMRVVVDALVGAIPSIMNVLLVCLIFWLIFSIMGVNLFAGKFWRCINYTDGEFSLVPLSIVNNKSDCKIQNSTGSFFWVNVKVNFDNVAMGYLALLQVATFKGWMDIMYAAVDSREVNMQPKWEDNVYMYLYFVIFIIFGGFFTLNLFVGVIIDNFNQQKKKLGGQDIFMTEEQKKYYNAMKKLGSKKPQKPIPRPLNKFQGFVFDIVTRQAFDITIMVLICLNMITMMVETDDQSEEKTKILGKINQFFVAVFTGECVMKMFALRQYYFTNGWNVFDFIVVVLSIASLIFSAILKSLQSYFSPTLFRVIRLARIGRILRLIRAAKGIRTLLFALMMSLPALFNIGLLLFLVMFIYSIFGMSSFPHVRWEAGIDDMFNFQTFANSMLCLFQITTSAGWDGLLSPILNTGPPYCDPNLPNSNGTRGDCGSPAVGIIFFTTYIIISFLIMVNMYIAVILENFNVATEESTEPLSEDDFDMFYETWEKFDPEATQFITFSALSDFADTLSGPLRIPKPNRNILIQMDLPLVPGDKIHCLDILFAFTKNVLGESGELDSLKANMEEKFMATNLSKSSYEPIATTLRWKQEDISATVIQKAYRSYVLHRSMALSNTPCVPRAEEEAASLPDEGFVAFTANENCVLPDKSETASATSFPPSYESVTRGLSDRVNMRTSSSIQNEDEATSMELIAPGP

Target: human NaV1.8 (Homo sapiens, UniProt Q9Y5Y9)
Assay: Nav1.8 Qube® Assay (automated 384-well patch-clamp, inhibition of sodium current)
Conditions: human NaV1.8 channels stably expressed in HEK 293 cells, room temperature
Experimental: Compounds were tested on human NaV1.8 and NaV1.5 channels stably expressed in human embryo kidney (HEK) 293 cells. Sodium current measurements on Qube® were conducted as follows: automated 384-well patch-clamp assays on the Qube® platform (Sophion Biosciences) were used to measure the inhibition of sodium flow through human NaV1.8 and NaV1.5 channels. Whole-cell voltage-clamp recordings were performed in QChips® (Sophion Biosciences) at room temperature. NaV1.8 current measurements on Qube® were obtained as follows: NaV1.8 currents were elicited with a 10 second 1 Hertz (Hz) pulse train from a holding potential of −90 millivolts (mV), delivered to the cells once per minute in the control condition (DMSO only) and after compound addition. The 1 hertz pulse train stimulation consisted of ten test pulses to 10 millivolt (mV) for 20 milliseconds (ms), each of which was followed by a 980 millisecond repolarization to −67 millivolts. At the end of the 10 second pulse train stimulation, a 5 second hyperpolarization step to −100 millivolt (mV) was used to recover NaV1.8 from fast inactivation. […]
For all Qube® experiments offline analysis was used to determine percent inhibition as a function of drug concentration. IC50 values were determined by fitting to the Hill equation.

Row | IC50 [µM] | Compound
1 | 0.00393 | CC1(C)CC(C(NC(=O)N2CCNC(=O)C2)c2ccc(F)c(Cl)c2F)C1 (single isomer, unassigned) [32B]
2 | 0.571 | CC1(C)CC(C(NC(=O)N2CCNC(=O)C2)c2ccc(F)c(Cl)c2F)C1 (single isomer, unassigned) [32A]
